# Literature values as cited in US20140314746A1, “METHODS FOR TREATING OR PREVENTING FIBROSIS IN SUBJECTS AFFLICTED WITH SCLERODERMA” (Philadelphia Health and Education Corporation, d/b/a Drexel …, priority 2013, published 2014).
# Key:
# IL-1β [1] = target: T1, IL-1β (Homo sapiens, UniProt P01584); conditions: cited from earlier work
# IL-1β [2] = target: T1, IL-1β; conditions: cited from earlier work; remark: listed apart in the source
substance,measurement,setting,value
XOMA-052: a potent anti-IL-1β humanized neutralizing antibody,in vitro potency,IL-1β [1],low picomolar range
same,binding affinity,IL-1β [2],300 femtomolar
